Consider 1 molecule from US20230151068A1.

The target of the test is biotinylated His-Avi-TEAD (194-411) (UniProt P28347). Description: SPR (Biacore T100, 25 C), captured biotinylated TEAD, peptide as analyte, steady-state. A general note: SPR reads the build-up and loss of mass on a sensor chip optically.

A word on the Kd: it is the free concentration of one partner at which half of the binding sites on the other are occupied at equilibrium, for simple one-to-one binding. Low readings indicate tighter binding, high ones weaker binding.

B1: peptide of SEQ ID NO: 5 (designed binder)
chain: GSPDEYIERAKECCKKGDIQCCLRYFEESGDPNVMLICAFCP
B1: the Kd stood at 280 nM.
